Results taken from PMC9706574, “A Versatile and Sustainable Multicomponent Platform for the Synthesis of Protein Degraders: Proof-of-Concept Application to BRD4-Degrading PROTACs” (Journal of Medicinal Chemistry, 2022).

Molecular target: BRD4 (Homo sapiens, UniProt O60885)
Test: BRD4 degradation by Western blot analysis in MDA-MB-231 cells
Details: MDA-MB-231, read-out: Dmax (maximal % of reduction toward DMSO control lane)

Dmax: 78%
Structure (SMILES): Cc1sc2c(c1C)C(c1ccc(Cl)cc1)=N[C@@H](CC(=O)N1CCN(CC(=O)NCCCCOc3cccc4c3C(=O)N(C3CCC(=O)NC3=O)C4=O)CC1)c1nnc(C)n1-2 (stereo partly drawn) [Compound 33, 2-(4-(2-((S)-4-(4-Chlorophenyl)-2,3,9-trimethyl-6H-thieno[3,2-f][1,2,4]triazolo[4,3-a][1,4]diazepin-6-yl)acetyl)piperazin-1-yl)-N-(4-((2-(2,6-dioxopiperidin-3-yl)-1,3-dioxoisoindolin-4-yl)oxy)butyl)acetamide]
